Source: US8361993B2, “Hydroxy-bisphosphonic acid derivatives as vector targeting bone tissue” (Universite de Nantes, priority 2008, dated 2013)
Where two headings read alike, the source gives them in different places.

Experiments:
murine fibroblast L929 = assay: cell proliferation test, 72hrs in 96-well plates, non-tumoral line; format: cell-based; conditions: read-out: IC50 L929 (ethanol), ethanol as solvent (final 1% in the well)
POS-1 mouse osteosarcoma [1] = assay: cell proliferation test, 72hrs in 96-well plates, tumoral line; format: cell-based
POS-1 mouse osteosarcoma [2] = assay: in vivo survival in lung nodule model after intravenous POS-1 cells; conditions: C3H/HeN mice, injection of 112 nmol/kg 7 days after tumoral cells; as soon as the 40th day, versus untreated control; FIG. 1

## NP(=O)(OCc1ccccc1)N(CCCl)CCCl (stereo not shown)
Murine fibroblast L929
  IC50: > 500 µM
POS-1 mouse osteosarcoma [1]; read-out: IC50 POS-1 (DMSO), DMSO as solvent (final 1% in the well)
  IC50: > 500 µM
POS-1 mouse osteosarcoma [1]; read-out: IC50 POS-1 (ethanol), ethanol as solvent (final 1% in the well)
  IC50: > 500 µM
POS-1 mouse osteosarcoma [2]
  survival rate: significant increase
